One series has as its target α4β2 nAChRs (Homo sapiens, UniProt P17787+P43681). Briefly: In vitro nAChR functional assay (automated patch-clamp, CHO cells). Type of series: cell-based. To be noted: CHO cells stably expressing human α4β2 nAChRs, 24 °C, mean ± SEM (Fig. 1). The protocol:
Electrophysiological responses were recorded using an automated patch-clamp Patchliner Octo® system (Nanion Technologies, Munich, Germany) equipped with two EPC-10 Quadro patch-clamp amplifiers (HEKA Elektronik, Lambrecht, Germany) as described previously. Chinese hamster ovarian (CHO) cells stably expressing human α4β2 nAChRs (Charles River Laboratories, Wilmington, MA, USA) were used. All experiments were performed at room temperature (24 °C) and repeated at least three times. Data were analyzed using Patchmaster software (HEKA Elektronik). Offline data analysis was performed in Apache OpenOffice™ (v4.1.2; […]). Igor Pro software (v6.2.2.2; WaveMetrics, Lake Oswego, OR, USA) was used to determine EC50 values. […] The average values were then fitted to the Hill equation: I=Baseline+X^∧nH(Imax-Baseline)/X^∧nH+EC50^∧nH, where I is the current response, Baseline is the minimal current response, X is the agonist concentration, nH is the Hill coefficient, Imax is the maximal current, and EC50 is the agonist concentration producing half-maximal activation. […]
For orientation: The patch-clamp technique gives a direct electrical read-out from membranes.

By UniProt entry, the sequences of proteins in these tests, tags left out. Residues count along the entry.
UniProt P17787, 26-502: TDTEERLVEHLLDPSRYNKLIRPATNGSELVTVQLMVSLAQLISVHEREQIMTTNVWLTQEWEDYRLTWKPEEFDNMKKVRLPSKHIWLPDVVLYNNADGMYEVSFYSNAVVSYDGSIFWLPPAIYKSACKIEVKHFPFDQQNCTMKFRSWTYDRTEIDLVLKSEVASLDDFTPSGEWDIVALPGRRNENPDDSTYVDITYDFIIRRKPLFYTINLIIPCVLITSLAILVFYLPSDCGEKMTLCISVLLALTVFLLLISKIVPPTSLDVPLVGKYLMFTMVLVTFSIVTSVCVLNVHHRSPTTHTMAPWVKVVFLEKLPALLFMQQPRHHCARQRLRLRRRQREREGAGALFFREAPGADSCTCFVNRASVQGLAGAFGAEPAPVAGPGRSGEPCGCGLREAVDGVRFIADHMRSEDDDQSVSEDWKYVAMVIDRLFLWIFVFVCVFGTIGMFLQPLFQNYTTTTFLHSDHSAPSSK
UniProt P43681, 29-627 limits assumed: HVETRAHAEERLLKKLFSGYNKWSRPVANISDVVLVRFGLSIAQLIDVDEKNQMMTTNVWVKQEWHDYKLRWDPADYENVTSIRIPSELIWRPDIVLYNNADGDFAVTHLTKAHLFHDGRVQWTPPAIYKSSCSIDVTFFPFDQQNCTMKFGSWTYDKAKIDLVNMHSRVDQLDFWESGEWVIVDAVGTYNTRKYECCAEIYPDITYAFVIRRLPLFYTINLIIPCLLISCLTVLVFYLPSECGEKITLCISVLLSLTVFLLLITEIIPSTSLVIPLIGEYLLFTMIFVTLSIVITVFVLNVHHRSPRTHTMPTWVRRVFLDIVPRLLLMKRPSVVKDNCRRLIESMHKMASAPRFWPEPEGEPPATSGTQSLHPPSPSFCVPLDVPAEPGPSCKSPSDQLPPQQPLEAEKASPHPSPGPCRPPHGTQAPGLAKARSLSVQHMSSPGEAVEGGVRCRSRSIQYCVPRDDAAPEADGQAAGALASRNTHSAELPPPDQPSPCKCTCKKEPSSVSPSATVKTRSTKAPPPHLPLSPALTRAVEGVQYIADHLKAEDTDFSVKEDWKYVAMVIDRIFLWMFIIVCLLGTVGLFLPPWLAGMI

Series [1] is described as follows: Brain bioavailability assay in zebrafish (UPLC-HRMS of brain homogenate). It counts as in vivo, Danio rerio. To be noted: zebrafish brain after 20-min exposure, linear relationship assumed, mean ± SEM. The protocol: Four fish (2 males and 2 females) per compound were used to determine the brain bioavailability of the compounds. Immediately after the 20-min compound treatment, the zebrafish were rinsed briefly to remove excessive compound on their body and terminated with 250 mg/L tricaine (CAS No. 886-86-2; Sigma). The fish were decapitated at the level of the gills using a surgical knife. The head was turned dorsal side down, and soft tissue was removed from the ventral side of the skull until the base of the skull was exposed. The skull was broken open and the bone from the ventral side of the brain was removed. The brain was then placed in a microcentrifuge tube, weighed, snap-frozen in liquid nitrogen, and stored at – 80 °C until the analysis.
Briefly, on the day of analysis, the brain samples were defrosted, resuspended in a methanol solution (2:1 [v/v] methanol:MilliQ water), and homogenized with vigorous agitation and ultrasonication (5 min each). The homogenate was centrifuged at 15,000 × rpm for 10 min, and the supernatant was analyzed using a UPLC-Q Exactive Orbitrap-HRMS system (Thermo Fisher Scientific™, Bremen, Germany). Chromatographic separation was achieved on a Synergi™ 4-µm Hydro-RP 80 Å, L.C. Column (250 × 4.6 mm; Phenomenex Inc., Torrance, CA, USA) with 0.1% formic acid in water (mobile phase A) and 0.1% formic acid in acetonitrile (mobile phase B). […]

The text below walks through data of PMC8397634 (Journal of Natural Medicines, 2021).

Regarding ( ±)-nornicotine, the concentration for a half-maximal effect (EC50) is 4.9 ± 0.7 µM on α4β2 nAChRs and under 8 µM on α4β2 nAChRs (listed as nornicotine). Besides, the entries for the “Relative brain level per 1 mg/L compound” value in series [1] and in series [1] (listed as nornicotine) were 0.07 ± 0.01 ng/mg tissue and “less than 0.1 ng/mg tissue”, respectively.

The term EC50 denotes the concentration at which the effect is half-maximal. Higher therefore signals a less potent agent.
